# An excerpt weighted towards active compounds, which were near 1.8% of everything screened.
# Cneo AK release = Cryptococcus neoformans lysis via adenylate kinase release; 360,000 tested, 0.2% active; lysis activity, % at 15 µM; C. neoformans lysis, adenylate kinase release luminescence, 4 h; normalised: neutral wells 0, clomiphene wells 100; AID 651654;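 active means mean lysis activity across replicates of at least 80%, whatever share of replicates individually reach that level; inactive means mean lysis activity below 80%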
#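 Material: C. neoformans cells; Schedule: 4 h static compound exposure, 37 °C, read 1 h post-reagent; Measured by: adenylate kinase release luminescence; Read-out: signal increase indicating cell lysis; Controls: Clomiphene as positive lysis control.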
# DENV2 CPE = protects cells from dengue virus 2 cytopathic effect | DENV2-infected cells, cytopathic effect rescue, plate reader | AID 651640 | 350,000 tested, 1.7% active | CPE inhibition, % at 9.99 µM; in the data active means CPE inhibition above about 20%, passing the limit was not always enough; inconclusive means no clear call, values can overlap the other calls; tested in BHK-21 cells;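 further: 0% = median of neutral control wells and 100% = median of positive control wells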
# UUG fidelity = modulators of yeast start codon fidelity, primary screen, whole organism, S. cerevisiae, single point, plate reader | AID 602363, 2012 | actives 0.13% (n = 350,000) | activity score, % at 18.7 µM | S. cerevisiae UUG-firefly luciferase reporter, luminescence/redox ratio;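 active means replicate mean at a twofold rise or more, about +100% in these data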;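 further: firefly luciferase made from a UUG start codon reports start codon fidelity; reporter light over untreated wells divided by growth signal over untreated wells; some hits fall short of that in this replicate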
# E-selectin induc = induces E-selectin expression in human endothelial cells; P16581; HUVEC E-selectin immunofluorescence imaging; normalized: neutral wells 0, TNF-alpha wells 100; activation, % at 7.58 µM; 260,000 tested, 0.37% active; AID 686992;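 active means mean E-selectin-positive cell signal at least 10% of the positive control, reached in at least 60% of replicates, without over 20% cell loss; inconclusive means no rule given, readout overlaps actives, possibly toxicity-flagged; inactive means the rest, including those meeting only one limit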
#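 Read-out basis: % PE-positive cells; Test system: HUVEC primary endothelial cells; Technique: immunofluorescence imaging; Dosing: single-point compound dose.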
# Numbers without * were called inactive; ? = inconclusive; nt = no result given.
no. | compound | Cneo AK release | DENV2 CPE
1 | O=C1COCCOCCOCCOCC(=O)NCCN1 | -7 | 26*
2 | O=C1COCCOCCOCC(=O)NCCN1 | nt | 8
3 | CCCN(C)C[C@H]1Oc2ncc(-c3cccc(C#N)c3)cc2C(=O)N([C@H](C)CO)C[C@H]1C | 5 | -2
4 | O=C(C[C@@H]1C=C[C@H](NC(=O)c2cccnc2)[C@@H](CO)O1)NCc1ccc(Cl)c(Cl)c1 | 1 | ?
5 | C[C@@H]1CCCCO[C@@H](CN(C)S(C)(=O)=O)[C@@H](C)CN([C@H](C)CO)C(=O)c2cc(NC(=O)c3ccccc3)ccc2O1 | 1 | 85*
6 | C[C@@H]1CCCCO[C@H](CN(C)S(=O)(=O)c2cccs2)[C@H](C)CN([C@@H](C)CO)C(=O)c2cc(NC(=O)c3ccccc3)ccc2O1 | -3 | 3
7 | C[C@@H]1CN([C@H](C)CO)C(=O)c2cc(NC(=O)c3ccccc3)ccc2O[C@@H](C)CCCCO[C@@H]1CN(C)S(C)(=O)=O | -2 | 0
8 | C[C@H]1CCCCO[C@H](CN(C)S(=O)(=O)c2cccs2)[C@@H](C)CN([C@@H](C)CO)C(=O)c2cc(NC(=O)c3ccccc3)ccc2O1 | -1 | 36*

no. | UUG fidelity | E-selectin induc
1 | 0 | -1
2 | nt | nt
3 | -6 | 0
4 | -15 | 0
5 | -12 | 0
6 | 0 | 0
7 | -1 | 0
8 | -4 | 0

# (more compounds)
no. | compound | Cneo AK release | DENV2 CPE
9 | Cc1ccn2c(NC3CCCCC3)c(-c3cccc(SC4CCCCC4)c3)nc2c1 | -2 | ?
10 | Cc1ccn2c(NC3CCCCC3)c(-c3ccc(SC4CCCCC4)cc3)nc2c1 | nt | 37*
11 | C[C@H](CO)N1C[C@H](C)[C@H](CN(C)C(=O)NC2CCCCC2)Oc2ncc(/C=C/c3ccccc3)cc2C1=O | -11 | 9
12 | COc1ccc(C2CC(=O)c3c(O)cc(O)cc3O2)cc1O (stereo not given) | -1 | 23*
13 | O=C1CC(c2ccccc2)Oc2cc(O)cc(O)c21 (stereo not given) | 0 | 70*
14 | COc1cccc(S(=O)(=O)N[C@H]2CC[C@H](CC(=O)NC3CCC3)O[C@@H]2CO)c1 | -1 | ?
15 | CO[C@H]1O[C@H](CO)[C@@H](OC(=O)Nc2cccc(F)c2)[C@H](OC(=O)Nc2ccc3c(c2)OCO3)[C@@H]1OC(=O)Nc1ccc2c(c1)OCO2 | -1 | 8
16 | CO[C@H]1O[C@H](CO)[C@@H](OC(=O)Nc2ccccc2)[C@H](OC(=O)Nc2ccc3c(c2)OCO3)[C@@H]1OC(=O)Nc1ccc2c(c1)OCO2 | 100* | -1

no. | UUG fidelity | E-selectin induc
9 | -6 | 0
10 | nt | 0
11 | 4 | 0
12 | -5 | nt
13 | -11 | nt
14 | -11 | 0
15 | 1 | nt
16 | 10 | nt

# Record cards (already shown).
# Profile of `C[C@H](CO)N1C[C@H](C)[C@H](CN(C)C(=O)NC2CCCCC2)Oc2ncc(/C=C/c3ccccc3)cc2C1=O` : Cneo AK release = -11; DENV2 CPE = 9; UUG fidelity = 4; E-selectin induc = 0
# Profile of `COc1cccc(S(=O)(=O)N[C@H]2CC[C@H](CC(=O)NC3CCC3)O[C@@H]2CO)c1` : Cneo AK release = -1; DENV2 CPE = ?; UUG fidelity = -11; E-selectin induc = 0

# The listing continues.
no. | compound | Cneo AK release | DENV2 CPE
17 | C[C@@H]1CN([C@H](C)CO)C(=O)Cc2cc(NC(=O)C3CC3)ccc2O[C@@H]1CN(C)Cc1ccncc1 | 1 | 21*
18 | COc1ccc(CN(C)C[C@H]2Oc3ccc(NC(=O)C4CC4)cc3CC(=O)N([C@@H](C)CO)C[C@@H]2C)cc1 | 0 | -6
19 | COc1ccc(CN(C)C[C@H]2Oc3ccc(NC(=O)C4CC4)cc3CC(=O)N([C@H](C)CO)C[C@@H]2C)cc1 | nt | 79*
20 | C[C@@H]1CN([C@@H](C)CO)C(=O)Cc2cc(NC(=O)C3CC3)ccc2O[C@H]1CN(C)Cc1ccncc1 | -7 | 5
21 | CCCC(=O)Nc1cc(OC)c(NC(=S)Nc2cccc(C)c2)cc1OC | 1 | 92*
22 | CCCC(=O)Nc1cc(OC)c(NC(=S)Nc2ccc(CC)cc2)cc1OC | 11 | 0
23 | COc1ccc(CN(C)C[C@@H]2OCCCC[C@@H](C)Oc3ccc(NS(=O)(=O)c4cn(C)cn4)cc3C(=O)N([C@H](C)CO)C[C@@H]2C)cc1 | -3 | 61*
24 | C[C@@H]1CCCCO[C@@H](CN(C)Cc2ccc(C(F)(F)F)cc2)[C@@H](C)CN([C@@H](C)CO)C(=O)c2cc(NS(=O)(=O)c3cn(C)cn3)ccc2O1 | 91* | -7

no. | UUG fidelity | E-selectin induc
17 | 3 | 1
18 | -2 | 0
19 | nt | 1
20 | 17 | 0
21 | -12 | 0
22 | -17 | nt
23 | -5 | 0
24 | 29 | 0

# New compounds follow
no. | compound | Cneo AK release | DENV2 CPE
25 | C[C@@H]1CCCCO[C@@H](CN(C)Cc2ccc(C(F)(F)F)cc2)[C@@H](C)CN([C@H](C)CO)C(=O)c2cc(NS(=O)(=O)c3cn(C)cn3)ccc2O1 | -1 | -5
26 | C[C@@H]1CN([C@@H](C)CO)C(=O)c2cccc(NS(=O)(=O)c3cn(C)cn3)c2O[C@@H]1CN(C)Cc1ccc(C(F)(F)F)cc1 | 0 | 22*
27 | C[C@H]1CN([C@@H](C)CO)C(=O)c2cccc(NS(C)(=O)=O)c2O[C@@H]1CN(C)CC1CC1 | -1 | -8
28 | C[C@@H](CSc1ccc(Br)cc1)CN1CC[C@H](NC(=O)OCc2ccccc2)CCC1=O | -1 | 75*
29 | COc1ccc(SC[C@H](C)CN2CC[C@H](NC(=O)OCc3ccccc3)CCC2=O)cc1 | 2 | -1
30 | O=C(Cc1ccccn1)N[C@@H]1CC[C@H](CCn2cc(-c3cccnc3)nn2)O[C@H]1CO | -4 | 0
31 | O=C(N[C@H]1CC[C@@H](CCn2cc(-c3ccccc3)nn2)O[C@@H]1CO)c1cnccn1 | 93* | -2
32 | O=C(Cc1ccccn1)N[C@H]1CC[C@H](CCn2cc(-c3cccnc3)nn2)O[C@@H]1CO | -3 | 58*

no. | UUG fidelity | E-selectin induc
25 | 3 | 0
26 | -7 | -14
27 | 7 | 3
28 | 3 | 0
29 | 35 | 0
30 | 2 | 0
31 | 7 | 0
32 | -7 | 1

# Following part.
no. | compound | Cneo AK release | DENV2 CPE
33 | O=C(N[C@H]1CC[C@@H](CCn2cc(-c3ccccc3)nn2)O[C@H]1CO)c1cnccn1 | -1 | 0
34 | O=C(N[C@@H]1CC[C@H](CCn2cc(-c3ccc(F)cc3)nn2)O[C@@H]1CO)c1cnccn1 | -3 | -3
35 | O=C(N[C@@H]1CC[C@@H](CCn2cc(-c3ccccc3)nn2)O[C@H]1CO)c1cnccn1 | 96* | 6
36 | CC1C(=O)N(Cc2cn(CCC3OCCO3)nn2)CCS(=O)(=O)N1Cc1ccc(-c2cccc(N(C)C)c2)cc1 (stereo not given) | 6 | 21*
37 | CC1C(=O)N(Cc2cn(Cc3ccco3)nn2)CCS(=O)(=O)N1Cc1ccc(-c2ccccc2C(F)(F)F)cc1 (stereo not given) | 20 | 65*
38 | Cc1ccccc1-c1ccc(CN2C(C)C(=O)N(Cc3cn(Cc4ccco4)nn3)CCS2(=O)=O)cc1 (stereo not given) | 7 | 12
39 | CC(C)C1C(=O)N(Cc2cn(CCC3OCCO3)nn2)CCS(=O)(=O)N1Cc1ccc(-c2ccc(Cl)c(Cl)c2)cc1 (stereo not given) | nt | 25*
40 | CC1C(=O)N(Cc2cn(CCC3OCCCO3)nn2)CCS(=O)(=O)N1Cc1ccc(-c2ccccc2)cc1 (stereo not given) | 0 | 5
41 | Cc1ccc(Cn2cc(CN3CC(N4CCSCC4)CS3(=O)=O)nn2)cc1 (stereo not given) | nt | 31*
42 | CCN(C)C1CN(Cc2cn(Cc3ccc(F)cc3)nn2)S(=O)(=O)C1 (stereo not given) | nt | 46*
43 | CCN(C)C1CN(Cc2cn(Cc3ccc(C)cc3)nn2)S(=O)(=O)C1 (stereo not given) | nt | -7

no. | UUG fidelity | E-selectin induc
33 | 0 | 0
34 | 7 | 0
35 | 11 | 0
36 | -10 | 1
37 | -15 | nt
38 | -1 | 0
39 | nt | nt
40 | 26 | 0
41 | nt | -1
42 | nt | 0
43 | nt | 0
